This note sets out measurements from PMC5832440 (Structure (London, England : 1993), 2014).

The target of this experiment is GST-DPY-30 (full-length DPY-30, wild type, in fusion with GST). The experiment is described as follows: peptide or protein array.

As to MGWGAVDEHTLADVLYHVETE (peptide, UniProt Q9UBL3-3 503-523, looked up) [ASH2L^SDI (503-523) peptide with V509 replaced by aspartic acid, on the SPOT array], the binding result was “binds”.
